Results from ChEMBL document CHEMBL4028893, “Discovery and Optimization of Potent, Cell-Active Pyrazole-Based Inhibitors of Lactate Dehydrogenase (LDH)” (J Med Chem, 2017).

How the values were obtained:
[1] = target: T1, L-lactate dehydrogenase A chain (Homo sapiens, UniProt P00338)
L-lactate dehydrogenase [2] = target: T2, L-lactate dehydrogenase (Homo sapiens, UniProt V9HWB9); experiment: Inhibition of LDH in human A673 cells assessed as reduction in lactate production preincubated for 2 hrs measured after 30 mins by high throughput fluorescence assay; assay type: cell-based
L-lactate dehydrogenase [3] = target: T2, L-lactate dehydrogenase; experiment: Inhibition of LDH in human MIAPaCa2 cells assessed as reduction in lactate production preincubated for 2 hrs measured after 30 mins by high throughput fluorescence assay; assay type: cell-based
[4] = target: T1, L-lactate dehydrogenase A chain; remark: listed apart in the source
[5] = target: T1, L-lactate dehydrogenase A chain; remark: listed apart in the source

NS(=O)(=O)c1ccc(Cc2c(-c3ccc(F)c(F)c3)nn(-c3nc(C(=O)O)cs3)c2O)cc1
EC50 [1]: 3.53 µM | IC50 (L-lactate dehydrogenase [2]): > 57000 nM

NS(=O)(=O)c1ccc(Cc2c(-c3cccc(-c4ccccc4)c3)nn(-c3nc(C(=O)O)cs3)c2CC2CC2)cc1
IC50 (L-lactate dehydrogenase [2]): 517 to 850 nM

NS(=O)(=O)c1ccc(Oc2c(-c3cccc(-c4ccccc4)c3)nn(-c3nc(C(=O)O)cs3)c2C2CC2)cc1
IC50 (L-lactate dehydrogenase [3]): 1960 nM

NS(=O)(=O)c1ccc(Cc2c(-c3cccc(Br)c3)nn(-c3nc(C(=O)O)cs3)c2O)cc1
IC50 [4]: 2370 nM | IC50 [5]: 2370 nM
